Source: ChEMBL document CHEMBL1250448, “Inhibitor hijacking of Akt activation” (Nat Chem Biol, 2009)

Biological target: T1, Aurora kinase A (Homo sapiens) (UniProt O14965)
T1 sequence (whole entry): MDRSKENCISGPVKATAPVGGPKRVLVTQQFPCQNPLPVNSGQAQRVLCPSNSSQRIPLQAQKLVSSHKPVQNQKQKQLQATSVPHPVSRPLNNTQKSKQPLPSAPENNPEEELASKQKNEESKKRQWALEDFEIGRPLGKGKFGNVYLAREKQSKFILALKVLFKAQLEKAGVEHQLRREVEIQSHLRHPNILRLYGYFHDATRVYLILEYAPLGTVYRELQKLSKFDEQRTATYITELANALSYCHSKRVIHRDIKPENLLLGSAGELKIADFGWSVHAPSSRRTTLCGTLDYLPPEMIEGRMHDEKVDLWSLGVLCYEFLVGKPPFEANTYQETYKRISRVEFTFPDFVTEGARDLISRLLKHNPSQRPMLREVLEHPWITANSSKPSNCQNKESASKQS
Test: Inhibition of STK6 at 1 uM in presence of 10 uM ATP by Select Screen kinase assay relative to untreated control
Method in brief: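 Commercial SelectScreen profiling panel of 220 purified kinases. Each kinase was tested at a single inhibitor concentration of 1 μM, and activity was expressed as percent inhibition.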

With Cc1n[nH]c2ccc(-c3cncc(OC[C@@H](N)Cc4c[nH]c5ccccc45)c3)cc12 the inhibition was 16%.
